These results are taken from paper PMC13005129 (Biochemistry, 2025).

Sequences of proteins named here, by UniProt entry; tags and fusion partners are left off. A change or cut given only in a name is not applied to a line headed by its entry.
UniProt P08483: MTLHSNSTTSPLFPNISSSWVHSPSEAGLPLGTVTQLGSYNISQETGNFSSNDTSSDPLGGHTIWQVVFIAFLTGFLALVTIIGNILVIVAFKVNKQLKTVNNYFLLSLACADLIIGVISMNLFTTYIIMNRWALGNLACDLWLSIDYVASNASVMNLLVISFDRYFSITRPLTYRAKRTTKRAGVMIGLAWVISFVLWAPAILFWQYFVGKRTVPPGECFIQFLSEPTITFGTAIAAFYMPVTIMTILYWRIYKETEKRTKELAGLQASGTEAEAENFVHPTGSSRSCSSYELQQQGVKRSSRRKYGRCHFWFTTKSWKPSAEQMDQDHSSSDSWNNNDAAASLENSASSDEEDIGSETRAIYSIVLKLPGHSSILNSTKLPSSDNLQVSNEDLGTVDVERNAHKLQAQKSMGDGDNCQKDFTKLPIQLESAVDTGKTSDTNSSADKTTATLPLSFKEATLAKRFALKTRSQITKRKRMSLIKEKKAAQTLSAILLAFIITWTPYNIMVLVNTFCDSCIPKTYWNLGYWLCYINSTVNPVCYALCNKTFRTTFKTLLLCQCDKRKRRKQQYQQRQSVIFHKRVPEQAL

For one experiment, the target named is M3R-Gq/βarr1 (Rattus norvegicus, UniProt P08483, C542A/C546S/C560S/C562S/DEL274-469). To be noted: COS-7 cells expressing M3R-Gq; BRET. A general note: BRET reads energy transfer from a luciferase to a nearby fluorophore.
The target of the next experiment is M3R-Gq/βarr2 (Rattus norvegicus, UniProt P08483, C542A/C546S/C560S/C562S/DEL274-469). To be noted: COS-7 cells expressing M3R-Gq; BRET.

For the compound `C[N+](C)(C)CCOC(N)=O` [carbachol, carbamoylcholine chloride], the “recruitment of βarr1” value at M3R-Gq/βarr1 was “failed to recruit either of the two β-arrestins”. Further, the “recruitment of βarr2” value at M3R-Gq/βarr2 is “failed to recruit either of the two β-arrestins”.
